These results are taken from PubChem BioAssay AID1996.

Molecules are shown by their SMILES. Values after ≈ are worked out from the molar mass of the structure shown.

What is called kinetic solubility is the concentration staying in solution when a stock, usually in DMSO, is diluted into the medium.

For the data set the following is noted: buffer; pH 7.4; 200.0 µM.
Turning to `COc1ccccc1OP(C)(=O)Nc1ccccc1` (stereo not drawn), the kinetic solubility is over 41.6 µg/mL. `O=[N+]([O-])c1ccc2c(c1)C=Nc1ccccc1O2` yielded a kinetic solubility of 2.8 µg/mL (≈ 11.7 µM). On to `CCc1ccc(OP(C)(=O)Nc2cccnc2)cc1` (stereo not drawn), for which the kinetic solubility was over 41.4 µg/mL.

For the compound `O=[N+]([O-])c1cc([N+](=O)[O-])c(O)c([N+](=O)[O-])c1.c1ccc(Oc2ccncc2)cc1`, the kinetic solubility was determined as 57.5 µg/mL. The compound `Cc1nc2ccc3ccccc3c2o1.O=[N+]([O-])c1cc([N+](=O)[O-])c(O)c([N+](=O)[O-])c1` gave a solubility (kinetic) of 24.7 µg/mL. `CP(=O)(Nc1cccc(Br)c1)Oc1ccccc1` (stereo not drawn) came in with a solubility (kinetic) of 46.3 µg/mL (≈ 142 µM).

`CP(=O)(Nc1ccc(Cl)cc1Cl)Oc1ccccc1` (stereo not drawn) showed a solubility (kinetic) of 39.9 µg/mL (≈ 126 µM). As to `CN(C)C(=O)c1c([N+](=O)[O-])cc([N+](=O)[O-])cc1[N+](=O)[O-]`, the kinetic solubility was over 42.6 µg/mL.
